In this experiment the target is T1, human recombinant GHS receptor (Homo sapiens, UniProt Q92847).
T1 construct: The full length human GHS-R was subcloned into the mammalian expression vector pcDNA 3.1; expressed in transfected cells; membranes prepared by homogenization
The experiment is described as follows: GHS-Receptor Binding Assay. The following applies: (125I)ghrelin, membranes of CHO-K1 cells expressing hGHS-R, 60 minute incubation at 4° C.

The chains behind the UniProt entries cited, without tags or fusion partners.
UniProt Q92847, whole entry: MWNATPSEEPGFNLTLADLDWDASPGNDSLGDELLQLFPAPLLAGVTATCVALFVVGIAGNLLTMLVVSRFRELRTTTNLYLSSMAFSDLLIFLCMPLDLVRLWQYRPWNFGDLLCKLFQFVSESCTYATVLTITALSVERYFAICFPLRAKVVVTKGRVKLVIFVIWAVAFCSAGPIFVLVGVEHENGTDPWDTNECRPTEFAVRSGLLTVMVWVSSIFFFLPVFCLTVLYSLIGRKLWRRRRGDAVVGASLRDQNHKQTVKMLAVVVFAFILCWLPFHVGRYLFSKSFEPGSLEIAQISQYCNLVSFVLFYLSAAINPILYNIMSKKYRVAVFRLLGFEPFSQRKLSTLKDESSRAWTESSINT

On to `O=C(N[C@H](Cc1c[nH]c2ccccc12)C(=O)N[C@H](Cc1ccc2ccccc2c1)c1nc(-c2ccccc2)c[nH]1)C1CCNCC1` [#124], for which the Ki (usually a dissociation constant, usually derived from enzyme kinetics or from competition with a known ligand) was 182 nM.

The values above are taken from patent US8871706B2, “Method for inhibiting inflammation and pre-inflammatory cytokine/chemokine expression using a ghrelin analogue” (Ipsen Pharma S.A.S., priority 2007, dated 2014).
